Test results published in patent publication US11806393B2, “Flavivirus peptide sequences, epitopes, and methods and uses thereof” (priority 2017, dated 2023).

Experiments:
Format in all cases: cell-based, mouse
CD8+ T cells [1] = assay: IFNγ ELISPOT, DENV2 S221-infected Ifnar-/- HLA-B*0702 transgenic mice; settings: HLA-B*0702 mice, 7 days after 2×10^4 FFU DENV2 S221
CD8+ T cells [2] = assay: IFNγ ICS, DENV2 S221-infected Ifnar-/- HLA-B*0702 transgenic mice; settings: HLA-B*0702 mice
CD8+ T cells [3] = assay: IFNγ ELISPOT, ZIKV-infected Ifnar-/- HLA-B*0702 transgenic mice; settings: HLA-B*0702 mice
CD44+CD62L- CD8+ T cells = assay: ICS, peptide-immunized Ifnar-/- HLA-B*0702 mice challenged with ZIKV; settings: mice immunized with the 4 ZIKV/DENV cross-reactive peptides, day 3 after ZIKV challenge
CD3+CD8+ T cells = assay: IFNγ ICS, ZIKV-infected Ifnar-/- HLA-B*0702 transgenic mice; settings: HLA-B*0702 mice

Sequence: APTRVVAAEM [FSS/MR-NS3206-215]
- SFC/10^6 CD8+ T cells, S221 (CD8+ T cells [1]): 606 SFC/10^6 CD8+ T cells
- % IFNγ+ CD8+ T cells, S221 (CD8+ T cells [2]; 7 days after DENV2 S221, ICS): (0.33%)
- ZIKV/DENV cross-reactivity in DENV2-infected mice (IFNγ ELISPOT and IFNγ ICS) (CD8+ T cells [2]; DENV2 S221, 7 days): positive in both IFNγ ELISPOT and IFNγICS assays
- SFC/10^6 CD8+ T cells, FSS13025 (CD8+ T cells [3]; 7 days after 1×10^2 FFU ZIKV FSS13025): 749 SFC/10^6 CD8+ T cells
- SFC/10^6 CD8+ T cells, MR766 (CD8+ T cells [3]; 7 days after 1×10^2 FFU ZIKV MR766): 724 SFC/10^6 CD8+ T cells
- immunodominance in IFNγ ELISPOT (CD8+ T cells [3]; immunodominant: >500 SFCs/10^6 CD8+ T cells, shared by both ZIKV strains): immunodominant
- percentage of epitope-specific cells among antigen experienced (CD44+CD62L-) CD8+ T cells (CD44+CD62L- CD8+ T cells): 0.66±0.24%
- % IFNγ+ CD8+ T cells, FSS13025 (CD3+CD8+ T cells; 7 days after ZIKV FSS13025, ICS): (0.3%)
- % IFNγ+ CD8+ T cells, MR766 (CD3+CD8+ T cells; 7 days after ZIKV MR766, ICS): (0.53%)
